For this test, the target named is SHP2 (Homo sapiens (Human), UniProt Q06124). Put plainly: SHP2 Allosteric Inhibition Assay. The test is classed as biochemical. The text has this:
SHP2 Allosteric Inhibition Assay
SHP2 is allosterically activated through binding of bis-tyrosyl-phosphorylated peptides to its Src Homology 2 (SH2) domains. The latter activation step leads to the release of the auto-inhibitory interface of SHP2, which in turn renders the SHP2 protein tyrosine phosphatase (PTP) active and available for substrate recognition and reaction catalysis. The catalytic activity of SHP2 was monitored using the surrogate substrate DiFMUP in a prompt fluorescence assay format.
After 30-60 minutes incubation at 25° C., the surrogate substrate DiFMUP (Invitrogen, cat #D6567) was added to the reaction and incubated at 25° C. for 30 minutes. […] The inhibitor dose response curves were analyzed using normalized IC50 regression curve fitting with control based normalization.

Chains of the proteins cited; added tags and fusions are not shown.
UniProt Q06124, whole entry: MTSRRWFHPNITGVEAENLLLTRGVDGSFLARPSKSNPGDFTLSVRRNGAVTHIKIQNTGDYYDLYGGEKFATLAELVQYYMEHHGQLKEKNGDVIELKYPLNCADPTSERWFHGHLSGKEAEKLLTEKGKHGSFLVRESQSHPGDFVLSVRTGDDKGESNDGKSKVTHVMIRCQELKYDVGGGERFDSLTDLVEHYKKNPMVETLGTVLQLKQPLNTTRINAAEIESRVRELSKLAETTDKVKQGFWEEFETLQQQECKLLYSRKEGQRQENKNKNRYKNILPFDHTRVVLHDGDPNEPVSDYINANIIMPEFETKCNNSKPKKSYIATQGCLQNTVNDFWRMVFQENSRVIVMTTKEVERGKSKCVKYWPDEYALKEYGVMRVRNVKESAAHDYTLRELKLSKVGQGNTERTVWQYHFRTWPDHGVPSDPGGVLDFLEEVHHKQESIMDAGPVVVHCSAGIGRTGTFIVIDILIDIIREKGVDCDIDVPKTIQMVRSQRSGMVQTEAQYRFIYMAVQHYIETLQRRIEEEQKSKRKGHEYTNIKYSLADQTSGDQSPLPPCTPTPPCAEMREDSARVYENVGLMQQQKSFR

A word on the IC50: it is the point on the concentration scale where inhibition reaches its midpoint.

As to `C[C@@H]1OCC2(CCN(c3nc4[nH]nc(-c5ccnc(Cl)c5Cl)c4c(=O)n3C)CC2)[C@@H]1N` [Example 1, 6-((3S,4S)-4-amino-3-methyl-2-oxa-8-azaspiro[4.5]decan-8-yl)-3-(2,3-dichloropyridin-4-yl)-5-methyl-1,5-dihydro-4H-pyrazolo[3,4-d]pyrimidin-4-one], the IC50 amounted to 28 nM.

For the origin of these results see patent publication US10975080B2, “Compounds and compositions for inhibiting the activity of SHP2” (NOVARTIS AG, priority 2015, dated 2021).
